The data set concerns human coronavirus (HCoV) 229E.

Like-named read-outs stand apart in the source and are kept apart here.

Turning to `CCC(CC)COC(=O)[C@H](C)N[P@](=O)(OC[C@H]1O[C@@](C#N)(c2ccc3c(N)ncnn23)[C@H](O)[C@@H]1O)Oc1ccccc1` [Remdesivir, reference compound], the “SI (CC50/EC50)” value is listed as 1490.62.
With `C/C=C/C[C@@H](C)[C@@H](O)[C@H]1C(=O)N[C@@H](CC)C(=O)N(C)[C@H](SCCN(C)C)C(=O)N(C)[C@@H](CC(C)(C)O)C(=O)N[C@@H](C(C)C)C(=O)N(C)[C@@H](CC(C)C)C(=O)N[C@@H](C)C(=O)N[C@H](C)C(=O)N(C)[C@@H](CC(C)C)C(=O)N(C)[C@@H](CC(C)C)C(=O)N(C)[C@@H](C(C)C)C(=O)N1C` [WS-635], the “SI (CC50/EC50)” value (MRC-5 cells, HCoV 229E) is listed as 9.07.

These data come from patent US20220296676A1 (priority 2020, published 2022).
